# Source: PubChem BioAssay AID588405 (Sanford-Burnham Center for Chemical Genomics, 2011)
# This is a selection; strong and weak results do not stand in their true shares. Calls of active or inactive are those of the source.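 Rule for the calls: active = inhibition of at least 50% at 20 µM; inactive = the rest.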
# Assay: inhibition of PEG-3 promoter activity – cell-based, HeLa, luciferase luminescence, primary screen (AID 588405)
# Settings: HeLa PEG-Prom luciferase reporter, overnight, at 20 µM, hits give high values
row,Structure (SMILES),inhibition
1,CCC(=O)N(c1ccccc1)C1(COC)CCN(CCc2cccs2)CC1,inactive: -7.61%
2,CCC(=O)N(c1ccccc1)C1(COC)CCN(CCn2nnn(CC)c2=O)CC1,inactive: 3.77%
